Results as given in ChEMBL document CHEMBL1156252, “Sigma-1 ligands: Tic-hydantoin as a key pharmacophore” (Eur J Med Chem, 2010).

The chains behind the UniProt entries cited, without tags or fusion partners.
UniProt Q99720, whole entry: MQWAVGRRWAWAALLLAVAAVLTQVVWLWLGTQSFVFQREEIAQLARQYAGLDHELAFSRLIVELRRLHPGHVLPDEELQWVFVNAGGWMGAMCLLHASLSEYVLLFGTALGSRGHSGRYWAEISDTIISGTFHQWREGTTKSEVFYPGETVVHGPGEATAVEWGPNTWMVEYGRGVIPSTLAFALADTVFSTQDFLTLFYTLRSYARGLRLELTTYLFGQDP

Target: Sigma non-opioid intracellular receptor 1 (Homo sapiens, UniProt Q99720)
Assay: Displacement of [3H](+)-pentazocine from sigma 1 opioid receptor in human Jurkat cells by scintillation counting
Format: cell-based

SMILES | IC50 [nM]
CN(CCCN1C(=O)[C@H]2Cc3ccccc3CN2C1=O)Cc1ccccc1 | 1000
CN(CCCN1C(=O)[C@@H]2Cc3ccccc3CN2C1=O)Cc1ccccc1 | 650
